From ChEMBL document CHEMBL1155125, “Activation of CFTR by UCCF-029 and genistein” (Bioorg Med Chem Lett, 2008)

Sequences of proteins named here, by UniProt entry; tags and fusion partners are left off. A line that says so, or that is headed by a name, gives the form on record, which may keep a tag or linker.
UniProt P13569, as listed by the source: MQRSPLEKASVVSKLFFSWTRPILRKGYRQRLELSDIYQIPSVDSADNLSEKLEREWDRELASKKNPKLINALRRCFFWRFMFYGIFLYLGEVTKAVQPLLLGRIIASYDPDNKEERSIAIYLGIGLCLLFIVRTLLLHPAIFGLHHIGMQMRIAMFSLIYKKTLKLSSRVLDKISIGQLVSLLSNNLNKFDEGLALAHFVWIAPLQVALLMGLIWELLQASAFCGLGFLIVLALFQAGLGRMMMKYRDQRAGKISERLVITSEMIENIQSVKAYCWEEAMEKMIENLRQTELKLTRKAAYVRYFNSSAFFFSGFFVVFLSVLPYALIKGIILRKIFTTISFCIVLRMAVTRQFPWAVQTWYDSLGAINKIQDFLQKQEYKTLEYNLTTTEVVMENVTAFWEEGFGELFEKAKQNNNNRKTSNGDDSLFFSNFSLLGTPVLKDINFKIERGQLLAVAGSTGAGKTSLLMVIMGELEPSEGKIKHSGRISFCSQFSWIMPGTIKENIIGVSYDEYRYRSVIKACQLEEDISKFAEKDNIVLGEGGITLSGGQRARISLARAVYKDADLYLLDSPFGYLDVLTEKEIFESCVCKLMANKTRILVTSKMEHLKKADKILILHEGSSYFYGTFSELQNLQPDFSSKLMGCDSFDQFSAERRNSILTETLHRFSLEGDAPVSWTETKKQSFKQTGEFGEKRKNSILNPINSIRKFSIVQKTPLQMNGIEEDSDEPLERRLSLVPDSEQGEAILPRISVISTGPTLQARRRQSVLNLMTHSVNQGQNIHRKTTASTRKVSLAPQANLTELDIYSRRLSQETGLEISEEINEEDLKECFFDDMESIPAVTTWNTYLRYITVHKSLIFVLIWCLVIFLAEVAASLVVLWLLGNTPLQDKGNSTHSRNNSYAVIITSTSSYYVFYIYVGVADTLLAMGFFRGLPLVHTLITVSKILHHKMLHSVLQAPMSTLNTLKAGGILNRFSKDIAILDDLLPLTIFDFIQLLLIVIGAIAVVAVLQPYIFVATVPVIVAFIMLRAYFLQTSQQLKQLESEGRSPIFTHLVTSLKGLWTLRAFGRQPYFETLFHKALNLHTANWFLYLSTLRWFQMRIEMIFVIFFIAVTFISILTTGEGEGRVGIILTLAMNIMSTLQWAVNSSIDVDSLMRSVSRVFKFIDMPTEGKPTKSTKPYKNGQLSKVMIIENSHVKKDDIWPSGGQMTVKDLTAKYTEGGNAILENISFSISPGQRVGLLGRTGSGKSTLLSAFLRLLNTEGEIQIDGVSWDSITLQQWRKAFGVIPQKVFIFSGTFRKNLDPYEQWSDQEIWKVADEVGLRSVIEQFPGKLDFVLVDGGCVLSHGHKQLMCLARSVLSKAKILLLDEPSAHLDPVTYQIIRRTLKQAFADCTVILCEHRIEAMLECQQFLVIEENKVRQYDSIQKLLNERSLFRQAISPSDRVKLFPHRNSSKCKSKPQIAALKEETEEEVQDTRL

Target: Cystic fibrosis transmembrane conductance regulator (Homo sapiens, UniProt P13569, F508DEL)
Experiment: Agonist activity at CFTR-deltaF508 mutant expressed in NIH3T3 cells assessed as increase in forskolin-stimulated current
Format: functional, cell-based

**Q.** For `O=c1c(-c2ccc(O)cc2)coc2cc(O)cc(O)c12` [GENISTEIN], which EC50 is on record?
**A.** 4.4 µM
